The nature of data set [1]: Intrinsic dissolution at individual pH sectors (GLpKa, 3 mm disks, 30 min). To be noted: pH 1.5; listed as AD–orcinol cocrystal.

Several values for one entry are separate records, joined by “and”; a condition that tells them apart may be missing. Equal values may be shown once. Read-outs that look alike come from different tables or passages of the source.

As to `CC(C)(C)C(=O)OCOP(=O)(COCCn1cnc2c(N)ncnc21)OCOC(=O)C(C)(C)C.Cc1cc(O)cc(O)c1` [AD–Orc cocrystal], in data set [1], the “Dissolution rate relative to AD single solid form (fold faster)” value is 3.2 fold and 2 fold. Also, the “AD Solubility” value is 289 (9) μM (pH 1.5), 138 (25) μM (pH 4), 92 (3) μM (pH 5.5) and 88 (7) μM (pH 7.4).
